By UniProt entry, the sequences of proteins in these tests, tags left out. Residues count along the entry.
UniProt P02768, 25-609: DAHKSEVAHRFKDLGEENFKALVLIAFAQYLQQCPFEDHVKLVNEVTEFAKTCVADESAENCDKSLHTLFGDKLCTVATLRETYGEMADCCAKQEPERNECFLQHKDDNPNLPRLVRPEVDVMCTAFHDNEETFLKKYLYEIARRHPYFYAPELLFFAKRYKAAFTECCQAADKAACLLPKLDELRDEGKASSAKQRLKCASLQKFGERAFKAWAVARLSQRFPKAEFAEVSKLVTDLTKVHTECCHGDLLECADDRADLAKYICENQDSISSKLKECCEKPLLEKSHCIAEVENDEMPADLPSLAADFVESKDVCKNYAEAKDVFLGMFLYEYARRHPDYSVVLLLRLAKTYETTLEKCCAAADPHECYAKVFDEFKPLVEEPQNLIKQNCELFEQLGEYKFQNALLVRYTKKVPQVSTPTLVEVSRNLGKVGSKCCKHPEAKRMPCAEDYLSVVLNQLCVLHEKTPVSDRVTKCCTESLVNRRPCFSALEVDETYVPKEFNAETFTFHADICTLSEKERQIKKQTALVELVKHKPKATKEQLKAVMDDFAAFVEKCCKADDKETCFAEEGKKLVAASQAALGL

In patent publication US20260027244A1, “SILICON-BASED FLUORIDE ACCEPTOR GROUPS FOR RADIOPHARMACEUTICALS” (Technische Universität München, priority 2022, published 2026):

Assays:
[1] = molecular target: T1, human serum albumin (HSA) (Homo sapiens, UniProt P02768); test: HSA binding of reference substances from literature (HPAC calibration); details: logarithmic value of HSA binding values
[2] = molecular target: T1, human serum albumin (HSA); details: HSA binding values obtained from literature; cited from earlier work

Q: What does the source list for `NC(=O)N1c2ccccc2C=Cc2ccccc21` [Carabamazepine]?
A: Log K HSA [1]: 0.46; lit. HSA [%] [2]: 75.00%
